This note sets out measurements from patent US20130084328A1, “METHYLATED CODING AND NON-CODING RNA GENES AS DIAGNOSTIC AND THERAPEUTIC TOOLS FOR HUMAN MELANOMA” (Sanford-Burnham Medical Research Institute, priority 2011, published 2013).

In this data set the test system is WM1552C cells. Nature of the data set: wound-healing migration assay, miR-34b. The class given is cell-based, human. Conditions: WM1552C/34b. How it is done:
Cell monolayers were then gently scratched with a pipette tip across the entire diameter of the dish and extensively rinsed with medium to remove all cellular debris. The surface area of the denuded surface was quantified immediately after wounding and again every 20 minutes for 24 hrs on the Nikon Bio Station IM. The extent of wound closure was determined by calculating the ratio of the surface area between the remaining wound edges for each time point to the surface area of the initial wound. […] The surface area was calculated using NIS Elements software and performed in triplicate.

For the substance “miR-34b: nucleic acid exemplified by SEQ ID NO:2 (CAAUCACUAACUCCACUGCCAU); stably expressed in WM1552C from pcDNA4/H1-3TetR/miR-34b (WM1552C/34b) (CAAUCACUAACUCCACUGCCAU)”, the “distance migrated relative to WM1552C/VO cells” value (by the end of 8 hrs) is “less than half of the distance”. The “time to close the scratch” value (WM1552C/VO 16 hrs) stood at 24 h.
